## Apparent affinities of Ab-14 variants for a coronavirus HR2 peptide

Source: Engelhart et al. 2022 (doi:10.1038/s41597-022-01779-4), MIT Lincoln Laboratory and A-Alpha Bio; data file from the FLAb repository.

Target: peptide PDVDLGDISGINAS, taken from heptad repeat 2 (HR2) of SARS-CoV-2 spike.

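The starting antibody came from a phage panning campaign against this peptide. In library AAYL50, one, two or three CDR residues were substituted; doubles and triples were drawn at random. AlphaSeq pools MATa yeast showing the antibodies with MATalpha yeast showing the peptide. Binding brings cells together so that they mate, and sequencing counts the barcode pairs among the diploids. A regression on co-assayed BCL2-family reference pairs converts the normalised counts of each replicate to an apparent Kd. There are three technical replicates.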

Parent scFv Ab-14: VH joined to VL by a 15-residue (Gly4Ser)3 linker. Changes lie in the light chain CDRs alone.
VH: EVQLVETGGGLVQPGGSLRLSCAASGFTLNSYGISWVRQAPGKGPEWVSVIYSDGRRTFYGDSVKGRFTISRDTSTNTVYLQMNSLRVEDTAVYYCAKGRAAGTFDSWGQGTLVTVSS
VL: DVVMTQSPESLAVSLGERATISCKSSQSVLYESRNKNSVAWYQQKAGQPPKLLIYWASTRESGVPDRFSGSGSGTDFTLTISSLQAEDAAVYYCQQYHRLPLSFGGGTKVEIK

Substitutions are numbered in sequence along the VL above, starting at 1 (not Kabat).
Values are log10 of the apparent Kd in nM; lower means stronger binding.
Averages over replicates are reported, and they cover detected replicates only.
Where no diploid with the target was found in any replicate, the entry reads "no signal": below detection, most likely a poor binder, though not proof of it.
Parent in this assay: reference entry 0.65, copy in this library 1.68.
Empty control strains, which show no peptide, gave a signal in 18% of pairings with library AAYL50; the median was 4.19 and 95% of these signals were weaker than 2.99. No background was subtracted.

changes	mean, log10 nM	detected
S28V V29M N37E	1.35	3/3
S25F N35T W56N	-0.63	3/3
Y31R H98K S103Q	no signal	0/3
K24Q S58V Q95T	4.25	3/3
Y31R A57M H98I	3.54	1/3
R34M E61C L102Y	0.85	3/3
A57D T59G Y97I	5.08	2/3
W56R S58C Y97R	no signal	0/3
S62T Q95P Y97H	2.51	3/3
S28N W56F A57I	0.65	3/3
Q27P N35T N37L	3.59	1/3
S33A A40K Y97R	no signal	0/3
K24M T59H L100R	4.18	1/3
Q27E S58P R99C	4.76	1/3
S25C E32D L100Q	1.62	3/3
N35W A40N L100F	3.27	1/3
K24V R34F R99Y	1.90	3/3
V29G S38K A40W	3.96	3/3
S28N S33M Y97T	1.94	3/3
K24W N35D P101R	3.03	3/3
Q96W H98W	0.75	3/3
S33F R34V S58F	2.48	1/3
S28N Y97P	no signal	0/3
N37K E61V	1.18	3/3
W56A R99W P101L	0.75	3/3
K36P A40L L102P	no signal	0/3
K36W R60Q P101R	4.61	2/3
V29Y K36R R60D	4.92	2/3
N37W W56H P101I	0.70	3/3
S26F Q27K S28N	0.99	3/3
L30K S38C S103I	4.56	2/3
K24L Y31C Q95A	no signal	0/3
L30N E32S Y97D	3.03	2/3
N37R Q95E Y97R	5.79	1/3
S26H V29K R60A	no signal	0/3
E32P Q96F Y97G	no signal	0/3
V29L S58H T59R	1.94	3/3
S26T E32M W56L	no signal	0/3
S28A Y31V S33H	2.00	3/3
R34C Y97G	1.10	3/3
V29C V39E	no signal	0/3
R34P V39Y H98A	3.54	2/3
S38A A40I R60G	no signal	0/3
S28D A57M Q95D	3.41	1/3
V39R W56I Q96S	no signal	0/3
K24N Q27M W56E	3.60	1/3
T59E R99E S103T	0.68	3/3
Q27W A40L E61P	4.65	1/3
S58G E61H P101S	5.13	2/3
S26W S28E V29A	2.83	3/3
K36H N37M V39K	no signal	0/3
W56D Q95D	no signal	0/3
Q27K S28I V39C	no signal	0/3
K36M V39Y Y97E	no signal	0/3
W56G S58W R60V	no signal	0/3
A57C Y97Q P101N	3.65	3/3
S25N W56R H98R	0.47	3/3
K24S S25A H98E	no signal	0/3
N37L R60H H98W	no signal	0/3
E32K S58Q Y97E	no signal	0/3
Q96Y L102I	no signal	0/3
N37M R99A P101N	4.89	1/3
S25G L100R L102D	no signal	0/3
N35G S38P A40V	3.77	2/3

The closing 6 entries, repeated:

| changes | mean, log10 nM | detected |
|---|---|---|
| N37L R60H H98W | no signal | 0/3 |
| E32K S58Q Y97E | no signal | 0/3 |
| Q96Y L102I | no signal | 0/3 |
| N37M R99A P101N | 4.89 | 1/3 |
| S25G L100R L102D | no signal | 0/3 |
| N35G S38P A40V | 3.77 | 2/3 |